Results taken from patent US20260092074A1, “Annelated Pyridines as Steroidogenesis Inhibitors, Preparation Method and Use Thereof” (Guangzhou Vinnocent Pharmaceutical Limited, priority 2022, published 2026).

The chains behind the UniProt entries cited, without tags or fusion partners. Residues count along the entry.
UniProt P15538, 25-503 limits assumed: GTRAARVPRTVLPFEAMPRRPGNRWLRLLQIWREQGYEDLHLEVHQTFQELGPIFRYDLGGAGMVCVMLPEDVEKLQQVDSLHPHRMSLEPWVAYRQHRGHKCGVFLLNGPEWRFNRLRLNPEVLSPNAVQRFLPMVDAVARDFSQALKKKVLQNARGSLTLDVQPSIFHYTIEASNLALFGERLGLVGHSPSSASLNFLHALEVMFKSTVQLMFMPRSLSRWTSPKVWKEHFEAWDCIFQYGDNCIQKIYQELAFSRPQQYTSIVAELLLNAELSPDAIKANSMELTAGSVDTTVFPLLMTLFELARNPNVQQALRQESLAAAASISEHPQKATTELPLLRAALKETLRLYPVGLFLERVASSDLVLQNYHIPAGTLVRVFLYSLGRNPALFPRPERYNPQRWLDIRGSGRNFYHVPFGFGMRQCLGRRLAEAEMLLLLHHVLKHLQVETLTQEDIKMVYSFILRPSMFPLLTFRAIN
UniProt P19099, 25-503 limits assumed: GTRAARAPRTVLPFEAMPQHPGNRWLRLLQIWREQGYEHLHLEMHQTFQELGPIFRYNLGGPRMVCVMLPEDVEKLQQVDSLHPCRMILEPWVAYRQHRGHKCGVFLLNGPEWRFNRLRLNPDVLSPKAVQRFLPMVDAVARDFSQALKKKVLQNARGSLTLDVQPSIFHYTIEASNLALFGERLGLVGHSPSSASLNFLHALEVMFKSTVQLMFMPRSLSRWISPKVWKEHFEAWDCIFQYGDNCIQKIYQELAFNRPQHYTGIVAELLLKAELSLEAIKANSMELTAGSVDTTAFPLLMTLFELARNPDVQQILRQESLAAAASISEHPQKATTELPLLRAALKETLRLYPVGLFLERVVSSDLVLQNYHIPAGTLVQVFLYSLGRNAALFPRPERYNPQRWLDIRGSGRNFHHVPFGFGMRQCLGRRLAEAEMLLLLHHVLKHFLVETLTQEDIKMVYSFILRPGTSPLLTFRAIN

What was measured:
[1] = molecular target: human CYP11B1 (Homo sapiens, UniProt P15538); test: Inhibition of hCYP11B1 in transfected V79 cells; format: cell-based; conditions: read-out: CYP11B1 IC50; hamster V79 cells expressing human CYP11B1; substrate 11-deoxycortisol 200 nM
[2] = molecular target: human CYP11B2 (Homo sapiens, UniProt P19099); test: Inhibition of hCYP11B2 in transfected V79 cells; format: cell-based; conditions: read-out: CYP11B2 IC50; hamster V79 cells expressing human CYP11B2; substrate 11-deoxycorticosterone 200 nM

N#Cc1ccc(S(=O)(=O)N2CCSc3c(-c4ccc5ncoc5c4)cncc32)cc1
IC50 [1]: 0.472 µM | IC50 [2]: 0.0026 µM
